Biological target: CB1 receptors (Macaca mulatta, UniProt Q71SP5)
Experiment: Monkey brain PET with 11C-SD5024, baseline and rimonabant pre-blocked scans
Details: receptor saturating dose of rimonabant 3 mg/kg i.v.

The chains behind the UniProt entries cited, without tags or fusion partners.
UniProt Q71SP5, whole entry: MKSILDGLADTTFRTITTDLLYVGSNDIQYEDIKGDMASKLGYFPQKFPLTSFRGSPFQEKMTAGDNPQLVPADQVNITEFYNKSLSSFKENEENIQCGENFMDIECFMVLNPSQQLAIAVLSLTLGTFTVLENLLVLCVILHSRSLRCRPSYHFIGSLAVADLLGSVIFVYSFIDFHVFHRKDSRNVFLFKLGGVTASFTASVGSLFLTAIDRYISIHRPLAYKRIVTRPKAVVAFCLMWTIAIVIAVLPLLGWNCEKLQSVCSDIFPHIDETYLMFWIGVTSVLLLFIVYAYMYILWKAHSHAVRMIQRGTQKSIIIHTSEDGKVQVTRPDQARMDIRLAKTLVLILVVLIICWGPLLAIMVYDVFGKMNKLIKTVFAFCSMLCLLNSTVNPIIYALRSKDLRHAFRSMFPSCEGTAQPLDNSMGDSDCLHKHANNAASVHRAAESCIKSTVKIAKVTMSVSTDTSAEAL

SMILES: Cc1c(C(=O)NN2CCCCC2)nn(-c2ccc(Cl)cc2Cl)c1-c1ccc(Cl)cc1 [rimonabant, reference compound]
- brain uptake of 11C-SD5024 after rimonabant: markedly reduced
